Consider one protein from patent US20100016241A1 (Genentech, published 2010).

This data set deals with the molecule itself. The experiment in a line: sulfo-EGS crosslinking of serum-starved 293, H441, MDA-MB-435 and A549 cells, Met blot (self-association). On the procedure:
Crosslinking studies were performed as previously described with modifications (Blechman et al., 1995). A549, H441, MDA-MB-435, and 293 cells were serum starved for 2 hrs with 0.5% BSA. The media was removed and replaced with PBS. Cells were then treated with the crosslinking agent sulfo-EGS (Pierce) at increasing concentrations according to the manufacturer's instructions. Similarly, 293 cells were plated into 6-well plates and transfected with 0.1-4 μg of the indicated constructs using Lipofectamine 2000 (Invitrogen). Twenty-four hours later, the media was replaced with PBS and cells were crosslinked with sulfo-EGS. Cells were then lysed with 1% NP40 lysis buffer with protease and phosphatase inhibitors. 10 μg of lysates in reducing sample buffer were then analyzed immediately on 8% or 4-12% Tris-glycine gels, transferred to nitrocellulose membranes, and blocked with 5% milk for 1 hour. Membranes were probed with 1:1000 Met C-12 (Santa Cruz) or 1:5000 V5 antibody overnight at 4° C. with rocking. After incubation of 1:5000 secondary antibodies, proteins were detected with ECL-Plus. […] 500 μg of crosslinked lysates were immunoprecipitated with either V5 or Flag antibody, analyzed on 8% Tris-glycine gels, transferred to nitrocellulose membranes, and immunoblotted with either 1:5000 V5 or 1:1000 Flag (Sigma) antibodies. Proteins were detected with ECL-Plus. […]

B1: endogenous Met receptor (c-Met) of cell lines (receptor, human, UniProt P08581 25-1390, looked up)
chain: ECKEALAKSEMNVNMKYQLPNFTAETPIQNVILHEHHIFLGATNYIYVLNEEDLQKVAEYKTGPVLEHPDCFPCQDCSSKANLSGGVWKDNINMALVVDTYYDDQLISCGSVNRGTCQRHVFPHNHTADIQSEVHCIFSPQIEEPSQCPDCVVSALGAKVLSSVKDRFINFFVGNTINSSYFPDHPLHSISVRRLKETKDGFMFLTDQSYIDVLPEFRDSYPIKYVHAFESNNFIYFLTVQRETLDAQTFHTRIIRFCSINSGLHSYMEMPLECILTEKRKKRSTKKEVFNILQAAYVSKPGAQLARQIGASLNDDILFGVFAQSKPDSAEPMDRSAMCAFPIKYVNDFFNKIVNKNNVRCLQHFYGPNHEHCFNRTLLRNSSGCEARRDEYRTEFTTALQRVDLFMGQFSEVLLTSISTFIKGDLTIANLGTSEGRFMQVVVSRSGPSTPHVNFLLDSHPVSPEVIVEHTLNQNGYTLVITGKKITKIPLNGLGCRHFQSCSQCLSAPPFVQCGWCHDKCVRSEECLSGTWTQQICLPAIYKVFPNSAPLEGGTRLTICGWDFGFRRNNKFDLKKTRVLLGNESCTLTLSESTMNTLKCTVGPAMNKHFNMSIIISNGHGTTQYSTFSYVDPVITSISPKYGPMAGGTLLTLTGNYLNSGNSRHISIGGKTCTLKSVSNSILECYTPAQTISTEFAVKLKIDLANRETSIFSYREDPIVYEIHPTKSFISGGSTITGVGKNLNSVSVPRMVINVHEAGRNFTVACQHRSNSEIICCTTPSLQQLNLQLPLKTKAFFMLDGILSKYFDLIYVHNPVFKPFEKPVMISMGNENVLEIKGNDIDPEAVKGEVLKVGNKSCENIHLHSEAVLCTVPNDLLKLNSELNIEWKQAISSTVLGKVIVQPDQNFTGLIAGVVSISTALLLLLGFFLWLKKRKQIKDLGSELVRYDARVHTPHLDRLVSARSVSPTTEMVSNESVDYRATFPEDQFPNSSQNGSCRQVQYPLTDMSPILTSGDSDISSPLLQNTVHIDLSALNPELVQAVQHVVIGPSSLIVHFNEVIGRGHFGCVYHGTLLDNDGKKIHCAVKSLNRITDIGEVSQFLTEGIIMKDFSHPNVLSLLGICLRSEGSPLVVLPYMKHGDLRNFIRNETHNPTVKDLIGFGLQVAKGMKYLASKKFVHRDLAARNCMLDEKFTVKVADFGLARDMYDKEYYSVHNKTGAKLPVKWMALESLQTQKFTTKSDVWSFGVLLWELMTRGAPPYPDVNTFDITVYLLQGRRLLQPEYCPDPLYEVMLKCWHPKAEMRPSFSELVSRISAIFSTFIGEHYVHVNATYVNVKCVAPYPSLLSSEDNADDEVDTRPASFWETS
notes: whole, on cells; Processed on the cell surface into disulfide-linked α and β subunits; In the 5D5 immunoprecipitation it stood in lysates of 293 cells; also called Met-M; Met-D
With B1, the binding result is reported as “binds”.
